Bioassay records from PubChem.
GIV-Gai inh: blocks GIV peptide binding to rat Galpha-i3. P08753. Galpha-i3/FITC-GIV peptide fluorescence polarization, 90 min; hits give low values; scaled: aluminum fluoride 0%, vehicle 100%. percent of control (FP), % (concentration not given with the values). actives 0.42% (n = 210,000). AID 1224905;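 active = replicate mean at 85% of control or lower, very high polarization wells dropped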;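 also: wells of about 15 µL received 100 nL stock; the first replicate is given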
HCMV NEC inh: inhibitors of HCMV UL50-UL53 interaction, biochemical, HTRF. inhibition, % (test concentration not listed). normalized percent inhibition. hit rate 0.15% among 190,000. AID 1918969, 2023; in the data active means inhibition above about 27%, passing the limit was not always enough
Sa growth 42C: S. aureus growth inhibition at 42 and 30 °C, primary screen, LtaS inhibitor project, RN4220, two temperatures. AID 720641, 2013. relative growth, % (no concentration beside the values). OD600, 20 h, 42 °C; active compounds read low. hit rate 0.53% among 170,000;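 active means relative growth at most 50% at the other temperature and 20+ points below 30 °C, or under 10% at both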
* marks the source's active call; other numbers are inactive results. Rows were chosen to be rich in hits. Some 0.7% of all compounds tested hit in one or more screens of this group.

Results for CCCC1CC(C(=O)NC(C(C)Cl)C2OC(SC)C(O)C(O)C2O)N(C)C1 (stereo not drawn) ?
HCMV NEC inh: -7

Results for CCC[C@@H]1C[C@@H](C(=O)N[C@H]([C@H]2O[C@H](SC)[C@H](O)[C@@H](O)[C@H]2O)[C@H](C)O)N(C)C1 ?
HCMV NEC inh: -37; Sa growth 42C: 0.0*

What do the screens show for `CCC[C@@H]1C[C@@H](C(=O)N[C@@H]([C@H]2O[C@H](SC)[C@H](O)[C@@H](O)[C@H]2O)[C@H](C)Cl)N(C)C1`?
GIV-Gai inh: 105; HCMV NEC inh: -32; Sa growth 42C: -0.8*

Results for CCC[C@@H]1C[C@@H](C(=O)N[C@@H](C2O[C@H](SC)[C@H](O)[C@@H](O)[C@H]2O)[C@H](C)Cl)N(C)C1 (stereo partly drawn) ?
HCMV NEC inh: -15; Sa growth 42C: -1.1*

What do the screens show for `Fc1ccc(C(NC2CCCC2)c2nnc(-c3ccccc3)o2)cc1` (stereo not drawn)?
GIV-Gai inh: 100; HCMV NEC inh: -15; Sa growth 42C: 103

How did CSc1nnc(CCNC(=O)Nc2ccccc2)n1C(C)C do in these assays?
GIV-Gai inh: 106; HCMV NEC inh: 20; Sa growth 42C: 95

What do the screens show for `Cc1cc(C)c(S(=O)(=O)NCC(=O)N2CCc3ccccc3C2)c(C)c1`?
GIV-Gai inh: 106; HCMV NEC inh: 1; Sa growth 42C: 97

Results for CCC(C)N[C@H]1CS(=O)(=O)C[C@@H]1S(=O)(=O)c1ccc(F)cc1 (stereo partly drawn) ?
GIV-Gai inh: 104; HCMV NEC inh: -22

What do the screens show for `O=C(N/C(=C\c1ccco1)C(=O)N1CCN(C/C=C/c2ccccc2)CC1)c1ccccc1`?
GIV-Gai inh: 107

How did CC1CCN(C(=O)c2cccc(C(=O)N3CCC(C)CC3)n2)CC1 do in these assays?
GIV-Gai inh: 91; HCMV NEC inh: -2

Results for CNc1ccc(O)cc1 ?
HCMV NEC inh: 69*; Sa growth 42C: 103

How did Oc1ccc(NC(=S)Nc2ccc(O)cc2)cc1 do in these assays?
GIV-Gai inh: 108; HCMV NEC inh: -11; Sa growth 42C: 137

What do the screens show for `CCCCC1CC(C)(C(=O)Nc2ccc(S(N)(=O)=O)cc2)OC1=O` (stereo not drawn)?
GIV-Gai inh: 102; HCMV NEC inh: -23; Sa growth 42C: 101

How did Oc1cc2c(cc1C(Nc1ccccn1)c1ccc3c(c1)OCO3)OCO2 (stereo not drawn) do in these assays?
HCMV NEC inh: 2; Sa growth 42C: 0.6*

How did CCc1cc(C(Nc2cc(C)ccn2)c2ccc3c(c2)OCO3)c(NC(=O)c2ccccc2)s1 (stereo not drawn) do in these assays?
GIV-Gai inh: 104; HCMV NEC inh: -24

What do the screens show for `CC1CCCCN1S(=O)(=O)c1ccc(S(=O)(=O)NCc2ccc3c(c2)OCO3)cc1` (stereo not drawn)?
GIV-Gai inh: 105; HCMV NEC inh: 14; Sa growth 42C: 109

What do the screens show for `COc1ccc(OC)c(NC(=O)C2CCCN(c3nc4cccnc4s3)C2)c1` (stereo not drawn)?
GIV-Gai inh: 110; HCMV NEC inh: -15

What do the screens show for `COc1ccc(CNc2ccc3cn[nH]c3c2)c(OC)c1C`?
GIV-Gai inh: 101; HCMV NEC inh: 52*; Sa growth 42C: 125

What do the screens show for `Cc1ccc(C)c(CNc2ccc3[nH]ncc3c2)c1`?
GIV-Gai inh: 110; HCMV NEC inh: -35; Sa growth 42C: 19

How did O=C(NN1C(=O)CSC1=S)c1ccc(F)cc1 do in these assays?
HCMV NEC inh: 1; Sa growth 42C: 74

Results for CC1CCN(C(=O)c2cc(-c3ccc(F)cc3)no2)CC1 ?
GIV-Gai inh: 99; HCMV NEC inh: -22; Sa growth 42C: 101

Results for O=C(C1CCCN(S(=O)(=O)c2cnc[nH]2)C1)N1CCn2c1nc1ccccc12 (stereo not drawn) ?
GIV-Gai inh: 106; HCMV NEC inh: 5; Sa growth 42C: 74

Results for CC1COc2c(N3CCN(C)CC3)c(F)cc3c(=O)c(C(=O)O)cn1c23 (stereo not drawn) ?
GIV-Gai inh: 97; HCMV NEC inh: -34; Sa growth 42C: -0.5*

How did CC1COc2c(N3CCN(C)CC3)c(F)cc3c(=O)c(C(=O)N4CCN(c5ncccn5)CC4)cn1c23 (stereo not drawn) do in these assays?
HCMV NEC inh: -17; Sa growth 42C: 71

Random excerpt: 2 entries already listed
How did Oc1cc2c(cc1C(Nc1ccccn1)c1ccc3c(c1)OCO3)OCO2 (stereo not drawn) do in these assays?
HCMV NEC inh: 2; Sa growth 42C: 0.6*

What do the screens show for `CC1CCCCN1S(=O)(=O)c1ccc(S(=O)(=O)NCc2ccc3c(c2)OCO3)cc1` (stereo not drawn)?
GIV-Gai inh: 105; HCMV NEC inh: 14; Sa growth 42C: 109

Structures from the list above that have an aryl methoxy group (two):
What do the screens show for `COc1ccc(OC)c(NC(=O)C2CCCN(c3nc4cccnc4s3)C2)c1` (stereo not drawn)?
GIV-Gai inh: 110; HCMV NEC inh: -15

What do the screens show for `COc1ccc(CNc2ccc3cn[nH]c3c2)c(OC)c1C`?
GIV-Gai inh: 101; HCMV NEC inh: 52*; Sa growth 42C: 125

New compounds follow:
Results for COc1ccc(C(=O)Cn2c(=O)n3nc(-c4ccccc4)nc3c3cc(OC)c(OC)cc32)cc1OC ?
GIV-Gai inh: 106

How did CCOC(=O)c1ccccc1NC(=O)Cn1cc(C(=O)c2ccc(CC)cc2)c(=O)c2ccc(C)nc21 do in these assays?
GIV-Gai inh: 112; HCMV NEC inh: -3

Results for CCC(C)NC(=O)CCCn1nc(-c2ccccc2)c2cc(Cl)ccc21 (stereo not drawn) ?
GIV-Gai inh: 99; HCMV NEC inh: -1

What do the screens show for `CCOC(=O)c1c(-c2c(Cl)cccc2Cl)noc1C`?
GIV-Gai inh: 104; HCMV NEC inh: -5; Sa growth 42C: 0.5*

What do the screens show for `CCOC(=O)c1c(-c2c(Cl)cccc2Cl)noc1N`?
GIV-Gai inh: 103; HCMV NEC inh: -2; Sa growth 42C: 104

Results for Cn1c(=O)c2c(nc(SCC(=O)N3CCCCC3)n2C)n(C)c1=O ?
HCMV NEC inh: -4; Sa growth 42C: 95

Results for Nc1nc2c(s1)CCc1c-2cnn1-c1ccccc1 ?
HCMV NEC inh: 63*; Sa growth 42C: 110

Results for Cc1c(-c2ccnc(N)n2)cnn1-c1ccccc1 ?
GIV-Gai inh: 105; HCMV NEC inh: -24; Sa growth 42C: 88

Results for CC1=C(C(=O)N2CCOCC2)C(c2ccccc2OC(C)C)C2=C(CCCC2=O)N1 (stereo not drawn) ?
GIV-Gai inh: 103; HCMV NEC inh: 6; Sa growth 42C: 100

How did O=C(Nc1ccc2c(c1)OCO2)c1c(Cl)nc2ccccn12 do in these assays?
HCMV NEC inh: -30; Sa growth 42C: 108

How did CSC1=N/C(=C\c2ccccc2)C(=O)S1 do in these assays?
GIV-Gai inh: 107; HCMV NEC inh: -19; Sa growth 42C: 113

Results for CCN(CC)c1ccc(/C=C2\N=C(SC)SC2=O)cc1 ?
GIV-Gai inh: -78*; HCMV NEC inh: -30; Sa growth 42C: 84

How did Fc1ccc(-c2nc3c(F)c(F)c(F)c(F)c3nc2-c2ccc(F)cc2)cc1 do in these assays?
GIV-Gai inh: 106

How did c1ccc(-c2ccc3c(c2)c2c4n3CCN=C4CCC2)cc1 do in these assays?
GIV-Gai inh: 110; HCMV NEC inh: -71; Sa growth 42C: -0.2*

How did Cc1ccc2c(c1)c1c3n2CC(O)CN=C3CCC1 (stereo not drawn) do in these assays?
GIV-Gai inh: 106; HCMV NEC inh: -74; Sa growth 42C: 93

Results for Cc1ccc(C)c(N2CCN(S(=O)(=O)c3cc(-c4cc(C(F)(F)F)[nH]n4)sc3C)CC2)c1 ?
GIV-Gai inh: 103

How did O=C(OCCn1ccnc1)c1ccc(-c2ccccc2)cc1 do in these assays?
HCMV NEC inh: -32; Sa growth 42C: 3.0*

What do the screens show for `O=C(CCn1ccnc1)OCc1ccccc1`?
HCMV NEC inh: 4; Sa growth 42C: 106
